The text below walks through data of patent publication US7632933B2, “Corticotropin releasing factor 2 receptor agonists” (priority 2002, dated 2009).

For one test, the target named is T1, CRF2R (Homo sapiens, UniProt Q13324).
T1 sequence (Q13324 1-411): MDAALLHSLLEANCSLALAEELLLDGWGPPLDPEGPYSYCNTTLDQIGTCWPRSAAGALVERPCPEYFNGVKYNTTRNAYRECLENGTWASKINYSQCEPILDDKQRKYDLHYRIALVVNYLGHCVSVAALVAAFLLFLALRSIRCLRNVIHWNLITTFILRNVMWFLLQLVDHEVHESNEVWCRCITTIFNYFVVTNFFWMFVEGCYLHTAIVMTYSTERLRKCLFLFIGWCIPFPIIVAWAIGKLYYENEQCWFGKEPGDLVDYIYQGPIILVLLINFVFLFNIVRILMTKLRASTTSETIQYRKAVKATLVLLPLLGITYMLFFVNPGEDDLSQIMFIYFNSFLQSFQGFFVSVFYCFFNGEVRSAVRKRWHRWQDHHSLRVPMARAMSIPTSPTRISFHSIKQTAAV
Nature of the test: CRF2R agonist activity (EC50 and Emax), called comparative CRF binding. The test is classed as cell-based. As to conditions: CRF2R EC50 (nM), CRF2R. Summed up: (§1)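 Steps: express single CRFR subtype in cells; add peptide or vehicle; prepare lysates or quantify CRE-linked reporter (e.g. luciferase, CAT, GFP, alkaline phosphatase) to gauge cAMP increase.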

Another test concerns the target T2, CRF1R (Homo sapiens, UniProt P34998).
T2 sequence (P34998 24-415): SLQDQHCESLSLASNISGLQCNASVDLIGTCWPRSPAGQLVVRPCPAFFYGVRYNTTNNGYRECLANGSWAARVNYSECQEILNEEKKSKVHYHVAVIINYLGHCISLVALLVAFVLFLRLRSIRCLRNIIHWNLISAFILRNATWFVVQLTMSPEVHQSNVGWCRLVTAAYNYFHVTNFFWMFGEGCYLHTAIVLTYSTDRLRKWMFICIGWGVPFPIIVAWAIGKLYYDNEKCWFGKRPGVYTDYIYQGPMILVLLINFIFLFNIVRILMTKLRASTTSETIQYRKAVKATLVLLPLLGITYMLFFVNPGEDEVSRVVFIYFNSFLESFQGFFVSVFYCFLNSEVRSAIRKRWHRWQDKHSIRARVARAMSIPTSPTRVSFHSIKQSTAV
Kind of test: CRF1R agonist activity (EC50 and Emax), called comparative CRF binding. Type of test: cell-based. As to conditions: CRF1R EC50 (nM), CRF1R. In short, it runs like this:
as §1

Turning to `CC[C@H](C)[C@H](NC(=O)[C@@H](NC(=O)[C@H](CC(=O)O)NC(=O)[C@H](CC(C)C)NC(=O)[C@H](CC(C)C)NC(=O)[C@H](CC(C)C)NC(=O)[C@H](CCCNC(=N)N)NC(=O)[C@H](CC(N)=O)NC(=O)[C@H](CC(N)=O)NC(=O)[C@H](C)NC(=O)[C@H](C)NC(=O)[C@H](CCC(N)=O)NC(=O)[C@H](CCC(N)=O)NC(=O)[C@H](CCCCN)NC(=O)[C@H](CCC(=O)O)NC(=O)[C@H](CCCCN)NC(=O)[C@H](CCC(=O)O)NC(=O)[C@H](CCC(N)=O)NC(=O)[C@H](CCCCN)NC(=O)[C@H](CCC(=O)O)NC(=O)[C@@H](NC(=O)[C@H](CCC(=O)O)NC(=O)[C@@H](NC(=O)[C@H](CCSC)NC(=O)[C@H](CCCCN)NC(=O)[C@H](CCCNC(=N)N)NC(=O)[C@H](CC(C)C)NC(=O)[C@H](CC(C)C)NC(=O)[C@H](Cc1ccccc1)NC(=O)[C@H](CCC(N)=O)NC(=O)[C@@H]1CCCN1C(=O)[C@H](CC(C)C)NC(=O)[C@H](CC(=O)O)NC(=O)[C@@H](NC(=O)[C@H](CO)NC(=O)[C@@H](NC(=O)[C@@H]1CCCN1C(=O)[C@@H]1CCCN1C(=O)CNC(=O)[C@@H]1CCC(=O)N1)[C@@H](C)CC)[C@@H](C)CC)[C@@H](C)CC)[C@@H](C)CC)[C@@H](C)O)C(N)=O` [compound 221], the EC50 was 8.5 nM at CRF2R and 236 nM on CRF1R.
Regarding `CC[C@H](C)[C@H](NC(=O)[C@@H](NC(=O)[C@H](CC(=O)O)NC(=O)[C@H](CC(C)C)NC(=O)[C@H](CC(C)C)NC(=O)[C@H](CC(C)C)NC(=O)[C@H](C)NC(=O)[C@H](CC(N)=O)NC(=O)[C@H](CC(N)=O)NC(=O)[C@H](C)NC(=O)[C@H](C)NC(=O)[C@H](CCC(N)=O)NC(=O)[C@H](CCC(N)=O)NC(=O)[C@H](CCCCN)NC(=O)[C@H](CCC(=O)O)NC(=O)[C@H](CCCCN)NC(=O)[C@H](CCC(=O)O)NC(=O)[C@H](CCC(N)=O)NC(=O)[C@H](CCCCN)NC(=O)[C@H](CCC(=O)O)NC(=O)[C@@H](NC(=O)[C@H](CCC(=O)O)NC(=O)[C@@H](NC(=O)[C@H](CCSC)NC(=O)[C@H](CCCCN)NC(=O)[C@H](CCCNC(=N)N)NC(=O)[C@H](CC(C)C)NC(=O)[C@H](CC(C)C)NC(=O)[C@H](Cc1c[nH]cn1)NC(=O)[C@H](Cc1ccccc1)NC(=O)[C@@H]1CCCN1C(=O)[C@H](CC(C)C)NC(=O)[C@H](CC(=O)O)NC(=O)[C@@H](NC(=O)[C@H](CO)NC(=O)[C@@H](NC(=O)[C@@H]1CCCN1C(=O)[C@@H]1CCCN1C(=O)CNC(=O)[C@@H]1CCC(=O)N1)[C@@H](C)CC)[C@@H](C)CC)[C@@H](C)CC)[C@@H](C)CC)[C@@H](C)O)C(N)=O` [compound 228], the values for the EC50 on CRF2R and on CRF1R were 7.1 nM and 275 nM, respectively.
As for `CC[C@H](C)[C@H](NC(=O)[C@@H](NC(=O)[C@H](CC(=O)O)NC(=O)[C@H](CC(C)C)NC(=O)[C@H](CC(C)C)NC(=O)[C@H](CC(C)C)NC(=O)[C@H](C)NC(=O)[C@H](CC(N)=O)NC(=O)[C@H](CC(N)=O)NC(=O)[C@H](C)NC(=O)[C@H](C)NC(=O)[C@H](CCC(N)=O)NC(=O)[C@H](CCC(N)=O)NC(=O)[C@H](CCCCN)NC(=O)[C@H](CCC(=O)O)NC(=O)[C@H](CCCCN)NC(=O)[C@H](CCC(=O)O)NC(=O)[C@H](CCC(N)=O)NC(=O)[C@H](CCCCN)NC(=O)[C@H](CCC(=O)O)NC(=O)[C@@H](NC(=O)[C@H](CCC(=O)O)NC(=O)[C@@H](NC(=O)[C@H](CCSC)NC(=O)[C@H](CCCCN)NC(=O)[C@H](CCCNC(=N)N)NC(=O)[C@H](CC(C)C)NC(=O)[C@H](CC(C)C)NC(=O)[C@H](Cc1ccc(O)cc1)NC(=O)[C@H](Cc1ccccc1)NC(=O)[C@@H]1CCCN1C(=O)[C@H](CC(C)C)NC(=O)[C@H](CC(=O)O)NC(=O)[C@@H](NC(=O)[C@H](CO)NC(=O)[C@@H](NC(=O)[C@@H]1CCCN1C(=O)[C@@H]1CCCN1C(=O)CNC(=O)[C@@H]1CCC(=O)N1)[C@@H](C)CC)[C@@H](C)CC)[C@@H](C)CC)[C@@H](C)CC)[C@@H](C)O)C(N)=O` [compound 230], the EC50 on CRF2R is 8.1 nM; on CRF1R, 219 nM.
For the molecule `CC[C@H](C)[C@H](NC(=O)[C@@H](NC(=O)[C@H](C)NC(=O)[C@H](CC(C)C)NC(=O)[C@H](CC(C)C)NC(=O)[C@H](CC(C)C)NC(=O)[C@H](C)NC(=O)[C@H](CC(N)=O)NC(=O)[C@H](CC(N)=O)NC(=O)[C@H](C)NC(=O)[C@H](C)NC(=O)[C@H](CCC(N)=O)NC(=O)[C@H](CCC(N)=O)NC(=O)[C@H](CCCCN)NC(=O)[C@H](CCC(=O)O)NC(=O)[C@H](CCCCN)NC(=O)[C@H](CCC(=O)O)NC(=O)[C@H](CCC(N)=O)NC(=O)[C@H](CCCCN)NC(=O)[C@H](CCC(=O)O)NC(=O)[C@@H](NC(=O)[C@H](CCC(=O)O)NC(=O)[C@@H](NC(=O)[C@H](CCSC)NC(=O)[C@H](CCCCN)NC(=O)[C@H](CCCNC(=N)N)NC(=O)[C@H](CC(C)C)NC(=O)[C@H](CC(C)C)NC(=O)[C@H](CCC(=O)O)NC(=O)[C@H](CC(C)C)NC(=O)[C@@H]1CCCN1C(=O)[C@H](CC(C)C)NC(=O)[C@H](CC(=O)O)NC(=O)[C@@H](NC(=O)[C@H](CO)NC(=O)[C@@H](NC(=O)[C@@H]1CCCN1C(=O)[C@@H]1CCCN1C(=O)CNC(=O)[C@@H]1CCC(=O)N1)[C@@H](C)CC)[C@@H](C)CC)[C@@H](C)CC)[C@@H](C)CC)[C@@H](C)O)C(N)=O` [compound 234], the EC50 is 20.6 nM on CRF2R and 434 nM on CRF1R.
Consider `CC[C@H](C)[C@H](NC(=O)[C@H](CCC(=O)O)NC(=O)[C@@H](NC(=O)[C@H](CCSC)NC(=O)[C@H](CCCCN)NC(=O)[C@H](CCCNC(=N)N)NC(=O)[C@H](CC(C)C)NC(=O)[C@H](CC(C)C)NC(=O)[C@H](Cc1c[nH]cn1)NC(=O)[C@H](CC(C)C)NC(=O)[C@@H]1CCCN1C(=O)[C@H](CC(C)C)NC(=O)[C@H](CC(=O)O)NC(=O)[C@@H](NC(=O)[C@H](CO)NC(=O)[C@@H](NC(=O)[C@@H]1CCCN1C(=O)[C@@H]1CCCN1C(=O)CNC(=O)[C@@H]1CCC(=O)N1)[C@@H](C)CC)[C@@H](C)CC)[C@@H](C)CC)C(=O)N[C@@H](CCC(=O)O)C(=O)N[C@@H](CCCCN)C(=O)N[C@@H](CCC(N)=O)C(=O)N[C@@H](CCC(=O)O)C(=O)N[C@@H](CCCCN)C(=O)N[C@@H](CCC(=O)O)C(=O)N[C@@H](CCCCN)C(=O)N[C@@H](CCC(N)=O)C(=O)N[C@@H](CCC(N)=O)C(=O)N[C@@H](C)C(=O)N[C@H](C(=O)N[C@H](C(=O)N[C@@H](CC(N)=O)C(=O)N[C@@H](C)C(=O)N[C@@H](CCCNC(=N)N)C(=O)N[C@@H](CC(C)C)C(=O)N[C@@H](CC(C)C)C(=O)N[C@@H](CC(=O)O)C(=O)N[C@H](C(=O)N[C@H](C(N)=O)C(C)C)[C@@H](C)O)[C@@H](C)O)[C@@H](C)O` [compound 238], for which the EC50 was 16.7 nM at CRF2R and 753 nM on CRF1R.
In the case of `CC[C@H](C)[C@H](NC(=O)[C@H](CCC(=O)O)NC(=O)[C@@H](NC(=O)[C@H](CCSC)NC(=O)[C@H](CCCCN)NC(=O)[C@H](CCCNC(=N)N)NC(=O)[C@H](CC(C)C)NC(=O)[C@H](CC(C)C)NC(=O)[C@H](Cc1c[nH]cn1)NC(=O)[C@H](CC(C)C)NC(=O)[C@@H]1CCCN1C(=O)[C@H](CC(C)C)NC(=O)[C@H](CC(=O)O)NC(=O)[C@@H](NC(=O)[C@H](CO)NC(=O)[C@@H](NC(=O)[C@@H]1CCCN1C(=O)[C@@H]1CCCN1C(=O)CNC(=O)[C@@H]1CCC(=O)N1)[C@@H](C)CC)[C@@H](C)CC)[C@@H](C)CC)C(=O)N[C@@H](CCC(=O)O)C(=O)N[C@@H](CCCCN)C(=O)N[C@@H](CCC(N)=O)C(=O)N[C@@H](CCC(=O)O)C(=O)N[C@@H](CCCCN)C(=O)N[C@@H](CCC(=O)O)C(=O)N[C@@H](CCCCN)C(=O)N[C@@H](CCC(N)=O)C(=O)N[C@@H](CCC(N)=O)C(=O)N[C@@H](C)C(=O)N[C@H](C(=O)N[C@H](C(=O)N[C@@H](CC(N)=O)C(=O)N[C@@H](C)C(=O)N[C@@H](CCCNC(=N)N)C(=O)N[C@@H](CC(C)C)C(=O)N[C@@H](CC(C)C)C(=O)N[C@@H](CC(=O)O)C(=O)N[C@@H](CCCNC(=N)N)C(=O)N[C@H](C(N)=O)C(C)C)[C@@H](C)O)[C@@H](C)O` [compound 239], the concentration giving a half-maximal response (EC50) at CRF2R came to 13.2 nM; at CRF1R, 587 nM.
